# scFv variants of Ab-14 (light chain) against a SARS-CoV-2 spike peptide

From the AlphaSeq antibody data of Engelhart et al. 2022 (doi:10.1038/s41597-022-01779-4), copy in the FLAb collection.

The target is the same throughout: PDVDLGDISGINAS, from the HR2 region of SARS-CoV-2 spike.

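AAYL50 was designed without a model: most single CDR substitutions and a random sample of double and triple ones. In AlphaSeq, yeast of one mating type display the scFv and yeast of the other type display the target. Pairs that bind mate more often; barcode pairs of the diploids are counted by sequencing. A regression on co-assayed BCL2-family reference pairs converts the normalised counts of each replicate to an apparent Kd. The assay was run in three technical replicates.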

Each scFv is VH, three GGGGS repeats, VL, as in the parent Ab-14, and differs from it in the CDRs of the light chain only.
VH: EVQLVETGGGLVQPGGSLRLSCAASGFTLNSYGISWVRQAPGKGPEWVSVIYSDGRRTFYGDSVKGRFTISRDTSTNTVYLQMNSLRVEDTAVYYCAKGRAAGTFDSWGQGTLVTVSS
VL: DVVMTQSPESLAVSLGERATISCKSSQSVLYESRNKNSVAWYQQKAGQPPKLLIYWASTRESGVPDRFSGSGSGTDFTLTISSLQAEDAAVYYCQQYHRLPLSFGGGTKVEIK

Each variant is given by its three light chain CDRs, as the data file delimits them; those of the parent are KSSQSVLYESRNKNSVA, WASTRES, QQYHRLPLS.
The read-out is the apparent dissociation constant on a log10 scale (nM): the lower, the stronger.
Where no diploid with the target was found in that replicate, the entry reads "nd": below detection, most likely a poor binder, though not proof of it.
In this assay the parent's reference entry averaged 0.65; its copy inside this library read 1.68.
Background: pairings of library AAYL50 with three empty control strains gave a value in 18% of cases (median 4.19, 5th percentile 2.99). Values in that range, when seen in few replicates, are hard to tell from nonspecific mating. For each scFv, signals with the empty controls are counted beside the result, with their mean in brackets.

{"CDR-L1": "KSSQSLLYSSRNKNSVA", "CDR-L2": "WASTRES", "CDR-L3": "QQYHSLPLS", "log10 Kd, replicates": "0.50 / 0.67 / 0.65", "signal with controls": "1 of 9 (3.61)"}
{"CDR-L1": "KSSQSVLYESRNKNSVA", "CDR-L2": "IHSTRES", "CDR-L3": "GQYHRLPLS", "log10 Kd, replicates": "nd / 3.98 / nd", "signal with controls": "0 of 9"}
{"CDR-L1": "KSSQSVLYESRNSNSVL", "CDR-L2": "HASTRES", "CDR-L3": "QQYHRLPLS", "log10 Kd, replicates": "nd / nd / nd", "signal with controls": "3 of 9 (3.19)"}
{"CDR-L1": "KSSCSVLYESRNKNSVC", "CDR-L2": "WASTRES", "CDR-L3": "QQVHRLPLS", "log10 Kd, replicates": "3.13 / 2.08 / nd", "signal with controls": "0 of 9"}
{"CDR-L1": "KSSQSVLYESRNKNSVA", "CDR-L2": "HNSTRES", "CDR-L3": "QHYHRLPLS", "log10 Kd, replicates": "nd / nd / nd", "signal with controls": "0 of 9"}
{"CDR-L1": "KSSQSVLVESRNKNSVA", "CDR-L2": "WASCRES", "CDR-L3": "VQYHRLPLS", "log10 Kd, replicates": "nd / nd / nd", "signal with controls": "1 of 9 (3.00)"}
{"CDR-L1": "KSSQSELYESRNKNSVA", "CDR-L2": "GASTRES", "CDR-L3": "QQYHRPPLS", "log10 Kd, replicates": "nd / 3.66 / 5.68", "signal with controls": "4 of 9 (3.25)"}
{"CDR-L1": "KSSQSVLYESRNHYSVA", "CDR-L2": "WAETRES", "CDR-L3": "QQYHRLPLS", "log10 Kd, replicates": "1.70 / 1.60 / 1.87", "signal with controls": "1 of 9 (3.63)"}
{"CDR-L1": "ASSQSVLYESLAKNSVA", "CDR-L2": "WASTRES", "CDR-L3": "QQYHRLPLS", "log10 Kd, replicates": "4.41 / 2.70 / nd", "signal with controls": "0 of 9"}
{"CDR-L1": "KSHQSVLYESRNKNSVA", "CDR-L2": "WASTRES", "CDR-L3": "QQYHFLPMS", "log10 Kd, replicates": "nd / nd / nd", "signal with controls": "1 of 9 (2.03)"}
{"CDR-L1": "KSSHSVLYESRNKWSVA", "CDR-L2": "WARTRES", "CDR-L3": "QQYHRLPLS", "log10 Kd, replicates": "3.04 / 2.53 / 2.76", "signal with controls": "3 of 9 (4.33)"}
{"CDR-L1": "KSNQSVLYEQRNKNSVE", "CDR-L2": "WASTRES", "CDR-L3": "QQYHRLPLS", "log10 Kd, replicates": "nd / nd / 5.21", "signal with controls": "0 of 9"}
{"CDR-L1": "KSSQSVLYESRCKNSVA", "CDR-L2": "WASTRES", "CDR-L3": "QQYHRLPKQ", "log10 Kd, replicates": "2.76 / 2.07 / 2.44", "signal with controls": "1 of 9 (3.99)"}
{"CDR-L1": "KSSQSVLYESRNENSVQ", "CDR-L2": "WASTRES", "CDR-L3": "QQYHRFPLS", "log10 Kd, replicates": "4.06 / nd / 4.46", "signal with controls": "2 of 9 (4.32)"}
{"CDR-L1": "KSSQSVLYHSRNKNSVK", "CDR-L2": "WASTRES", "CDR-L3": "QQYHRFPLS", "log10 Kd, replicates": "nd / 3.80 / nd", "signal with controls": "1 of 9 (3.23)"}
{"CDR-L1": "KSSQYVLYESRNKNSWA", "CDR-L2": "WASTRES", "CDR-L3": "QQQHRLPLS", "log10 Kd, replicates": "5.11 / nd / nd", "signal with controls": "1 of 9 (5.62)"}
{"CDR-L1": "KSSQSVLYECRNKVSVA", "CDR-L2": "WISTRES", "CDR-L3": "QQYHRLPLS", "log10 Kd, replicates": "3.47 / 2.93 / 3.91", "signal with controls": "4 of 9 (4.65)"}
{"CDR-L1": "KSSQSVLYGSRNKNTVA", "CDR-L2": "WISTRES", "CDR-L3": "QQYHRLPLS", "log10 Kd, replicates": "nd / nd / nd", "signal with controls": "0 of 9"}
{"CDR-L1": "KSSSSVVYSSRNKNSVA", "CDR-L2": "WASTRES", "CDR-L3": "QQYHRLPLS", "log10 Kd, replicates": "0.77 / 1.24 / 1.21", "signal with controls": "1 of 9 (2.96)"}
{"CDR-L1": "KSSKSKLYESRNKNSVA", "CDR-L2": "WASTRES", "CDR-L3": "QQGHRLPLS", "log10 Kd, replicates": "3.48 / nd / 2.05", "signal with controls": "2 of 9 (3.34)"}
{"CDR-L1": "KSDQSVLYESRNKLSVA", "CDR-L2": "WASTREL", "CDR-L3": "QQYHRLPLS", "log10 Kd, replicates": "3.15 / 2.02 / 2.63", "signal with controls": "1 of 9 (2.81)"}
{"CDR-L1": "KSSQSVLYESRNKTSPQ", "CDR-L2": "WASTRES", "CDR-L3": "QQYHRLPLS", "log10 Kd, replicates": "nd / nd / 4.73", "signal with controls": "6 of 9 (4.25)"}
{"CDR-L1": "KSSQSVLYESRNKNGVA", "CDR-L2": "WASMRHS", "CDR-L3": "QQYHRLPLS", "log10 Kd, replicates": "4.05 / 3.72 / nd", "signal with controls": "0 of 9"}
{"CDR-L1": "KTSQSVLYESRNKNSVA", "CDR-L2": "WASDRES", "CDR-L3": "QQYHRLPLS", "log10 Kd, replicates": "0.71 / 0.82 / 0.78", "signal with controls": "2 of 9 (4.87)"}
{"CDR-L1": "KSSQSVLYSSRNKNDVA", "CDR-L2": "WASTRES", "CDR-L3": "QGYHRLPLS", "log10 Kd, replicates": "4.13 / 3.37 / 3.35", "signal with controls": "2 of 9 (4.52)"}

Extract of 3 entries:

{"CDR-L1": "KSSQSVLYESRNENSVQ", "CDR-L2": "WASTRES", "CDR-L3": "QQYHRFPLS", "log10 Kd, replicates": "4.06 / nd / 4.46", "signal with controls": "2 of 9 (4.32)"}
{"CDR-L1": "KTSQSVLYESRNKNSVA", "CDR-L2": "WASDRES", "CDR-L3": "QQYHRLPLS", "log10 Kd, replicates": "0.71 / 0.82 / 0.78", "signal with controls": "2 of 9 (4.87)"}
{"CDR-L1": "KSSQSVLYSSRNKNDVA", "CDR-L2": "WASTRES", "CDR-L3": "QGYHRLPLS", "log10 Kd, replicates": "4.13 / 3.37 / 3.35", "signal with controls": "2 of 9 (4.52)"}